# Target: NAD(P)H dehydrogenase [quinone] 1 (Mus musculus) (UniProt Q64669)
# The chains behind the UniProt entries cited, without tags or fusion partners.
# UniProt Q64669, whole entry: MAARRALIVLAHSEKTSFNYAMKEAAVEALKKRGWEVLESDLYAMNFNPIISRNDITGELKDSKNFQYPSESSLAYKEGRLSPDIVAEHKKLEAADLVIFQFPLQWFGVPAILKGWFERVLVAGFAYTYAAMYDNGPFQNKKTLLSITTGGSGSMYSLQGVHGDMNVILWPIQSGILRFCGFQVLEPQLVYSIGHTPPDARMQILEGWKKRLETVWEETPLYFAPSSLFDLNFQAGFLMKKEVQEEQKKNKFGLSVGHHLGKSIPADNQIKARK
# Settings: Hepa1c1c7, filed as activator
row,CD [µM],Compound
1,7,CCCCCC(O)C#CC#CC(O)c1ccc(F)c(F)c1 (configuration not stated)
2,3.3,CCCCCC(O)C#CC#CC(O)c1cc(OC)c(OC)cc1F (configuration not stated)
3,11.9,CCCCCC(O)C#CC#CC(O)c1cccc(F)c1 (configuration not stated)
4,22.2,CCCCCC(O)C#CC#CC(O)c1ccccc1Cl (configuration not stated)
5,4.4,CCCCCC(O)C#CC#CC(O)c1ccc(F)c(Cl)c1 (configuration not stated)
6,5.7,OC(C#CC#CC(O)C1CCCCC1)c1ccc(F)cc1 (configuration not stated)
7,6.5,CCCCCC(O)C#CC#CC(O)c1ccccc1 (configuration not stated)
8,50.8,CCCCCC(O)C#CC#CC(O)c1cc(C(F)(F)F)cc(C(F)(F)F)c1 (configuration not stated)
9,29.8,CCCCCC(O)C#CC#CC(O)c1cc(OC)c(OC)cc1OC (configuration not stated)
10,6.7,CCCCCC(O)C#CC#CC(O)c1ccc(Cl)c(Cl)c1 (configuration not stated)
11,4.9,CCCCCC(O)C#CC#CC(O)c1ccc(Cl)c(F)c1 (configuration not stated)
12,3,CCCCCC(O)C#CC#CC(O)c1ccc2c(c1)OCCO2 (configuration not stated)
13,17.6,CCCCCC(O)C#CC#CC(O)c1ccc(OC)c(OC)c1OC (configuration not stated)
14,3.3,CCCCCC(O)C#CC#CC(O)c1ccc(Cl)cc1 (configuration not stated)
15,3.2,CCCCCC(O)C#CC#CC(O)c1ccc(F)cc1 (configuration not stated)
16,25.8,CCCCCC(O)C#CC#CC(O)c1ccc2ccccc2c1 (configuration not stated)
17,1.3,CCCCCC(O)C#CC#CC(O)c1cccc(Cl)c1 (configuration not stated)
18,12.1,CCCCCC(O)C#CC#CC(O)c1cccc(Br)c1 (configuration not stated)
19,5.1,CC(C)CC(O)C#CC#CC(O)c1ccc(F)cc1 (configuration not stated)

row,CD [µM],Compound
1,6.2,CCCCCC(O)C#CC#CC(O)c1cc(Cl)ccc1Cl (configuration not stated)
2,12.3,CCCCCC(O)C#CC#CC(O)c1cccc(Cl)c1Cl (configuration not stated)
3,5.1,CC(C)CC(O)C#CC#CC(O)c1cccc(Cl)c1 (configuration not stated)
4,17.3,CCCCCC(O)C#CC#CC(O)c1cc(Br)ccc1OC (configuration not stated)
5,22.3,CCCCCC(O)C#CC#CC(O)c1ccc(Cl)cc1Cl (configuration not stated)
6,12,OC(C#CC#CC(O)C1CCCCC1)c1cccc(Cl)c1 (configuration not stated)
7,24.3,CCCCCC(O)C#CC#CC(O)c1ccc(F)cc1Cl (configuration not stated)
8,8.8,CCCCCC(O)C#CC#CC(O)c1ccc(C(C)(C)C)cc1 (configuration not stated)
9,19.7,CCCCCC(O)C#CC#CC(O)c1cc(Cl)cc(Cl)c1 (configuration not stated)
10,11.4,CCCCCC(O)C#CC#CC(O)c1cccc2ccccc12 (configuration not stated)
11,7,CCCCCCCCCC(O)C#CC#CC(O)c1ccc(F)cc1 (configuration not stated)
12,12.7,CCCCCC(O)C#CC#CC(O)c1ccc(OCc2ccccc2)c(OC)c1 (configuration not stated)
13,13.6,CCCCCC(O)C#CC#CC(O)c1ccc(Br)cc1 (configuration not stated)
14,1.8,CCCCCC(O)C#CC#CC(O)c1ccc2c(c1)OCO2 (configuration not stated)
15,0.7,CCCC(O)C#CC#CC(O)c1ccc(F)cc1 (configuration not stated)
16,15,CCCCCC(O)C#CC#CC(O)c1ccc(OC)cc1C (configuration not stated)
17,15.4,CCCCCCCCCC(O)C#CC#CC(O)c1cccc(Cl)c1 (configuration not stated)
18,3,CCCC(O)C#CC#CC(O)c1cccc(Cl)c1 (configuration not stated)
